This note sets out measurements from PubChem BioAssay AID720504 (National Center for Advancing Translational Sciences (NCATS), 2013).

Chains of the proteins cited; added tags and fusions are not shown.
UniProt P53350, whole entry: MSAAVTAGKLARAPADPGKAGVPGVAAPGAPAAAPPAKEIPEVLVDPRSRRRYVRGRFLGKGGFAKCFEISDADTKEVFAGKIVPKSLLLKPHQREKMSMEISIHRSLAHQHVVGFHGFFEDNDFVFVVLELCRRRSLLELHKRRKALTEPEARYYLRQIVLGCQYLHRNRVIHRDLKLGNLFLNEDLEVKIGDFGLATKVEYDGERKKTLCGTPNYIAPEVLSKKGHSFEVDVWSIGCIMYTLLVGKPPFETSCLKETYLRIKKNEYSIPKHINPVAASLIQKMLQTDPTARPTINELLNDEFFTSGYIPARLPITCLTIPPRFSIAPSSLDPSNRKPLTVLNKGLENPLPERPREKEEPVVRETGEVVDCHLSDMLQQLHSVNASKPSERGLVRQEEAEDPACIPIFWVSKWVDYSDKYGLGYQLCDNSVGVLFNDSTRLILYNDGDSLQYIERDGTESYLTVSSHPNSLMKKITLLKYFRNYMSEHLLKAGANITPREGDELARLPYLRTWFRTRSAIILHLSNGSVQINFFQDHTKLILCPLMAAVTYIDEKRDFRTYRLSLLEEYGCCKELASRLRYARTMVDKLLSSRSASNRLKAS

Molecules are shown by their SMILES. The entries are a selection whose mix differs from that of the whole data set. Results filed as inconclusive are left out. Some structures show a salt or complex split into parts, the way the source records it. Active and inactive are the calls of the source. The call rests on the fitted dose curve; in most records, active means well fitted inhibition curve with a large enough effect; inconclusive means small, poorly fitted or top-dose-only effect; inactive means flat fitted curve, though single readings scatter.
On the % scale 0 is the no-effect control and ±100 the full control effect; potency means the concentration at half of the fitted maximal effect.

The target in this assay is Serine/threonine-protein kinase PLK1 (Homo sapiens) (UniProt P53350). Briefly: qHTS for Inhibitors of PLK1-PDB (polo-like kinase 1 - polo-box domain): Primary Screen. Further: nearly all actives have a fitted effect of over 65% in size. On max response, negative = inhibition: series mostly up to about 57 µM. The note with it: Plk1 PBD binding of FITC phosphopeptide, fluorescence polarization.
Regarding `Cc1ccccc1NC1(C#N)CCN(Cc2ccccc2)CC1`, the max response, negative = inhibition was inactive: -4.22%.
For `CC(C)(C)n1nnnc1C(c1ccnc2ccccc12)N1CCC(n2c(=O)[nH]c3ccccc32)CC1` (centres undefined), the max response, negative = inhibition was inactive: -7%.
Still for that read-out and setting: as for `CCN1CCC(Nc2cccc(F)c2)CC1`, the figure is inactive: -3.66%; as for `COc1ccc(C(c2nnnn2C2CCCCC2)N2CCC(n3c(=O)[nH]c4ccccc43)CC2)cc1` (centres undefined), inactive: -1.59%; as for `O=C(NCC1(N2CCCCC2)CCCCC1)c1ccco1`, inactive: -1.45%.
Regarding `Cn1c(=O)[nH]cc(N(CCCl)CCCl)c1=O`, the max response, negative = inhibition was inactive: -0.586%.
On the same count and under the same terms, the figure for `CN(C)c1ccc(C(=O)NCC2(N3CCCCC3)CCCCC2)cc1` is inactive: -7.96%; for `CC(=O)N(c1ccccc1)C1CCNCC1` it is inactive: -11.6%.
Turning to `COc1cccc(C(c2nnnn2C2CCCCC2)N2CCC(n3c(=O)[nH]c4ccccc43)CC2)c1OC` (centres undefined), the max response, negative = inhibition is inactive: 2.74%.
The same measure, in the same setting: the figure for `CCC(c1nnnn1C1CCCCC1)N1CCC(n2c(=O)[nH]c3ccccc32)CC1` (centres undefined) is inactive: -2.83%; for `O=c1[nH]c2ccccc2n1C1CCN(C(c2ccnc3ccccc23)c2nnnn2C2CCCCC2)CC1` (centres undefined) it is inactive: 1.47%.
For the molecule `COc1cc(OC)cc(C(=O)NCC2(N3CCCCC3)CCCCC2)c1`, the max response, negative = inhibition is inactive: -4.75%.
On the same count and under the same terms, as for `Cc1ccc(C(=O)NCC2(N3CCCCC3)CCCCC2)o1`, the figure is inactive: -1.41%; as for `Cc1ccc(Nc2c([N+](=O)[O-])cc([N+](=O)[O-])cc2[N+](=O)[O-])cc1`, inactive: -9.38%.
`Fc1ccccc1NC1CCN(Cc2ccccc2)CC1`: the max response, negative = inhibition is inactive: 2.31%.
For the molecule `Cc1ccc(NC2(C#N)CCN(Cc3ccccc3)CC2)cc1`, the max response, negative = inhibition is inactive: -2.16%.
On the same count and under the same terms, as for `COc1cccc(C(=O)N(c2cc(C)cc(C)c2)C2CCN(C(=O)OC(C)(C)C)CC2)c1`, the figure is inactive: -3.7%; as for `COc1cc(OC)cc(C(=O)NCC2(N3CCOCC3)CCCCC2)c1`, inactive: -3.15%.
For `COc1cccc(C(c2nnnn2C2CCCC2)N2CCC(n3c(=O)[nH]c4ccccc43)CC2)c1OC` (centres undefined), the max response, negative = inhibition is inactive: -0.732%.
`CCC(CO)(C(=O)OC1CN2CCC1CC2)c1ccccc1` (centres undefined): the max response, negative = inhibition is inactive: -4.65%.
`CN1CCC(Nc2ccc(Cl)cc2)CC1`: the max response, negative = inhibition was inactive: -5.85%.
On the same count and under the same terms, as for `CCOc1ncccc1C(=O)NCC1(N2CCOCC2)CCCCC1`, the figure is inactive: -3.28%; as for `CN1CCC(Nc2ccc(F)c(Cl)c2)CC1`, inactive: -15.6%.
Take `CC(C)(C)OC(=O)N1CCC(Nc2ccccc2)CC1`: the max response, negative = inhibition is inactive: -12.9%.
With `NN(c1ccccc1)C1CCN(CCc2ccccc2)CC1`, the max response, negative = inhibition is inactive: -10.6%.
On to `O=C(O)C1(Nc2ccccc2)CCN(Cc2ccccc2)CC1`, for which the max response, negative = inhibition was inactive: -7.81%.
In the case of `CCCOc1ccc(C(=O)NCC2(N(C)C)CCCCC2)cc1`, the max response, negative = inhibition was inactive: -3.67%.
Same read-out and setting: the figure for `O=c1[nH]c2ccccc2n1C1CCN(C(c2cc3ccccc3o2)c2nnnn2C2CCCC2)CC1` (centres undefined) is inactive: 3.76%; for `COc1cccc(C(c2nnnn2C(C)(C)C)N2CCC(n3c(=O)[nH]c4ccccc43)CC2)c1OC` (centres undefined) it is inactive: -4.97%; for `CCOC(=O)N1CCC(Nc2ccc(C)cc2)CC1` it is inactive: -9.08%.
Consider `N/C(=N\O)c1c(N)no[n+]1[O-]`, for which the max response, negative = inhibition is inactive: 2.65%.
As to `O=C(OC1CN2CCC1CC2)C1c2ccccc2C=Cc2ccccc21` (centres undefined), the max response, negative = inhibition is inactive: -4.74%.
Regarding `CCc1cc(C(=O)NCC2(N3CCCCC3)CCCCC2)sc1C`, the max response, negative = inhibition is inactive: -2.1%.
The same measure, in the same setting: the figure for `O=c1[nH]c2ccccc2n1C1CCN(C(c2cccs2)c2nnnn2C2CCCC2)CC1` (centres undefined) is inactive: 4.24%; for `O=C(O)c1cccc(Nc2c([N+](=O)[O-])cc([N+](=O)[O-])cc2[N+](=O)[O-])c1` it is inactive: -3.21%.
The same measure, in the same setting: as for `CCCCn1nnnc1C(c1cccc(OC)c1OC)N1CCC(n2c(=O)[nH]c3ccccc32)CC1` (centres undefined), the figure is inactive: -4.84%.
Same read-out and setting: as for `CCCCn1nnnc1C(c1ccccc1)N1CCC(n2c(=O)[nH]c3ccccc32)CC1` (centres undefined), the figure is inactive: -7.31%; as for `COc1cc(C(=O)NCC2(N3CCOCC3)CCCCC2)cc(OC)c1C`, inactive: -4.74%; as for `O=C(NCC1(N2CCOCC2)CCCCC1)c1cc(Br)ccc1Cl`, inactive: -3.75%.
Regarding `O=c1[nH]c2ccccc2n1C1CCN(C(c2cccs2)c2nnnn2C2CCCCC2)CC1` (centres undefined), the max response, negative = inhibition was inactive: -12.7%.
Still for that read-out and setting: the figure for `COc1ccc(C(=O)NCC2(N3CCOCC3)CCCCC2)cc1OC` is inactive: -4.24%.
On the same count and under the same terms, the figure for `O=c1[nH]c2ccccc2n1C1CCN(C(c2ccnc3ccccc23)c2nnnn2C2CCCC2)CC1` (centres undefined) is inactive: -7.42%; for `CN(C)C1(CNC(=O)c2cccc(C#N)c2)CCCCC1` it is inactive: 7.93%; for `c1ccc(CN2CCC(Nc3ccccc3)CC2)cc1` it is inactive: -17.8%.
As to `Cc1cc(N(CCCl)CCCl)ccc1C=O`, the max response, negative = inhibition is inactive: 3.92%.
Still for that read-out and setting: as for `O=c1[nH]c2ccccc2n1C1CCN(C(c2ccccc2)c2nnnn2C2CCCC2)CC1` (centres undefined), the figure is inactive: -6.73%; as for `CCCN1CCC(Nc2cc(OC)cc(OC)c2)CC1`, inactive: 2.12%.
Same read-out and setting: the figure for `CC(C)(C)n1nnnc1C(c1cccc2ccccc12)N1CCC(n2c(=O)[nH]c3ccccc32)CC1` (centres undefined) is inactive: -5.75%; for `N#Cc1ccc(C(=O)NCC2(N3CCCCC3)CCCCC2)cc1` it is inactive: -17.6%.
For `CC(C)(C)OC(=O)N1CCC(N(C(=O)c2ccccc2)c2ccc(Cl)cc2)CC1`, the max response, negative = inhibition is inactive: -2.74%.
Same read-out and setting: the figure for `CCOC(=O)C(CC)C1=NC(C)(C)Cc2ccccc21.O=[N+]([O-])c1cc([N+](=O)[O-])c(O)c([N+](=O)[O-])c1` (centres undefined) is inactive: 2.96%; for `O=[N+]([O-])c1cc([N+](=O)[O-])c(NCC2CCS(=O)(=O)C2)c([N+](=O)[O-])c1` (centres undefined) it is inactive: -2.19%.
On to `O=C(NCC1(N2CCCCC2)CCCCC1)c1cccc(C(F)(F)F)c1`, for which the max response, negative = inhibition was inactive: -15%.
As for `O=C(NCC1(N2CCOCC2)CCCCC1)c1cc(=O)[nH]c2ccccc12`, the max response, negative = inhibition is inactive: -14%.
The same measure, in the same setting: the figure for `COc1cc(C(=O)NCC2(N3CCCCC3)CCCCC2)ccc1OC(F)F` is inactive: 0.379%.
Take `CCCCn1nnnc1C(c1cccc2ccccc12)N1CCC(n2c(=O)[nH]c3ccccc32)CC1` (centres undefined): the max response, negative = inhibition was inactive: 0.366%.
Same read-out and setting: as for `CC(C)c1ccc(C(=O)NCC2(N3CCOCC3)CCCCC2)cc1`, the figure is inactive: -8.22%.
As to `COc1ccc(NC2CCN(C(=O)OC(C)(C)C)CC2)cc1`, the max response, negative = inhibition was inactive: -0.101%.
As to `CN1CCN(CCOC(=O)C(O)(c2ccccc2)c2ccccc2)CC1`, the max response, negative = inhibition is inactive: -6.8%.
Consider `CC(C)(C)n1nnnc1C(c1ccccc1OC(F)(F)F)N1CCC(n2c(=O)[nH]c3ccccc32)CC1` (centres undefined), for which the max response, negative = inhibition was inactive: -6.98%.
As for `O=C(NCC1(N2CCCCC2)CCCCC1)c1ccc(OC(F)F)cc1`, the max response, negative = inhibition is inactive: -1.15%.
Turning to `CCN1CCC(Nc2ccc(Cl)cc2)CC1`, the max response, negative = inhibition is inactive: 5.6%.
On the same count and under the same terms, the figure for `N#CC1(Nc2ccccc2)CCN(CCc2ccccc2)CC1` is inactive: -3.52%.
`O=c1[nH]c2ccccc2n1C1CCN(C(c2ccccc2OC(F)(F)F)c2nnnn2C2CCCC2)CC1` (centres undefined): the max response, negative = inhibition is inactive: 4.64%.
The same measure, in the same setting: as for `O=C(NCC1(N2CCCCC2)CCCCC1)c1cccc([N+](=O)[O-])c1`, the figure is inactive: -10.6%.
Same read-out and setting: the figure for `CSc1ccc(C(=O)NCC2(N3CCOCC3)CCCCC2)cc1` is inactive: -14.4%.
On to `O=C(OC1CN2CCC1CC2)c1ccc([N+](=O)[O-])cc1` (centres undefined), for which the max response, negative = inhibition was inactive: 0.121%.
As to `COc1ccc2c(c1O)-c1c(O)c(OC)cc3c1[C@H](C2)[N+](C)(C)CC3.O=[N+]([O-])c1cc([N+](=O)[O-])c([O-])c([N+](=O)[O-])c1[O-]`, the max response, negative = inhibition was inactive: -3.36%.
Same read-out and setting: as for `O=C(NCC1(N2CCCCC2)CCCCC1)c1cncc(Br)c1`, the figure is inactive: -7.25%.
As to `CN1CCC(Nc2cccc(F)c2)CC1`, the max response, negative = inhibition is inactive: 1.5%.
Consider `COc1ccc(C(c2nnnn2C2CCCC2)N2CCC(n3c(=O)[nH]c4ccccc43)CC2)cc1` (centres undefined), for which the max response, negative = inhibition is inactive: 5%.
The same measure, in the same setting: the figure for `O=[N+]([O-])c1cc([N+](=O)[O-])c(Nc2ccc(Cl)cc2)c([N+](=O)[O-])c1` is inactive: -12.6%; for `Cc1ccc(C(=O)NCC2(N(C)C)CCCCC2)o1` it is inactive: 2.53%; for `CCCOc1ccc(C(=O)NCC2(N(C)C)CCCCC2)cc1OC` it is inactive: -15.9%.
Same read-out and setting: the figure for `CCCCn1nnnc1C(c1ccccc1OC(F)(F)F)N1CCC(n2c(=O)[nH]c3ccccc32)CC1` (centres undefined) is inactive: 1.39%; for `CC(C)c1ccc(NC2CCN(C(=O)OC(C)(C)C)CC2)cc1` it is inactive: 1.77%.
Turning to `COc1ccc(CN(CCCl)CCCl)cc1Cl`, the Potency is active: 21.2 µM.
For the molecule `CN(C)c1cccc(C(=O)NCC2(N3CCCCC3)CCCCC2)c1`, the max response, negative = inhibition is inactive: -0.416%.
As to `O=[N+]([O-])c1cc([N+](=O)[O-])c(OC2CCCCC2O)c([N+](=O)[O-])c1` (centres undefined), the max response, negative = inhibition was inactive: -21.6%.
On to `COc1cc(OC)c(C(=O)NCC2(N(C)C)CCCCC2)cc1OC`, for which the max response, negative = inhibition is inactive: -16.7%.
Same read-out and setting: the figure for `CCC(c1nnnn1C(C)(C)C)N1CCC(n2c(=O)[nH]c3ccccc32)CC1` (centres undefined) is inactive: -1.3%; for `O=C(NCC1(N2CCOCC2)CCCCC1)c1cc(F)c(F)cc1Cl` it is inactive: 2.21%.
On the same count and under the same terms, as for `CCCCn1nnnc1C(c1ccnc2ccccc12)N1CCC(n2c(=O)[nH]c3ccccc32)CC1` (centres undefined), the figure is inactive: -7.76%; as for `O=c1[nH]c2ccccc2n1C1CCN(C(c2ccccc2OC(F)(F)F)c2nnnn2C2CCCCC2)CC1` (centres undefined), inactive: 6.65%.
Still for that read-out and setting: the figure for `O=C(NCC1(N2CCCCC2)CCCCC1)c1ccc(Cl)nc1` is inactive: 2.26%; for `Cc1cc(C)cc(N(C(=O)c2ccccc2)C2CCN(C(=O)OC(C)(C)C)CC2)c1` it is inactive: -11.9%; for `O=C(NCC1(N2CCOCC2)CCCCC1)c1cc2ccccc2o1` it is inactive: -1.83%.
As to `O=c1[nH]c2ccccc2n1C1CCN(C(c2cc3ccccc3o2)c2nnnn2C2CCCCC2)CC1` (centres undefined), the max response, negative = inhibition was inactive: 2.87%.
For the molecule `O=C(OC1CN2CCC1CC2)C1c2ccccc2Oc2ccccc21` (centres undefined), the max response, negative = inhibition is inactive: -0.185%.
